Data as given in US12286429B2, “5-oxo-1,2,3,5,8,8a-hexahydroindolizine-3-carboxamide derivatives useful as a factor XIa inhibitors” (Janssen Pharmaceutica NV, priority 2021, dated 2025).

The chains behind the UniProt entries cited, without tags or fusion partners. Residues count along the entry.
UniProt P03952, 391-638 limits assumed: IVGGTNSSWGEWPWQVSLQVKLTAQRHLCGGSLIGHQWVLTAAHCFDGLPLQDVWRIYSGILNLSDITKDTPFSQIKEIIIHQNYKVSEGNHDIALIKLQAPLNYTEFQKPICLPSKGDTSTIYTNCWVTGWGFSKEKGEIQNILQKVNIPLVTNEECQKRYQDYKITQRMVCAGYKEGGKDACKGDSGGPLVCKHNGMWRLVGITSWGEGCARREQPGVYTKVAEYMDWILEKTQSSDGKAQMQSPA
UniProt P03952, 20-390 partner limits assumed: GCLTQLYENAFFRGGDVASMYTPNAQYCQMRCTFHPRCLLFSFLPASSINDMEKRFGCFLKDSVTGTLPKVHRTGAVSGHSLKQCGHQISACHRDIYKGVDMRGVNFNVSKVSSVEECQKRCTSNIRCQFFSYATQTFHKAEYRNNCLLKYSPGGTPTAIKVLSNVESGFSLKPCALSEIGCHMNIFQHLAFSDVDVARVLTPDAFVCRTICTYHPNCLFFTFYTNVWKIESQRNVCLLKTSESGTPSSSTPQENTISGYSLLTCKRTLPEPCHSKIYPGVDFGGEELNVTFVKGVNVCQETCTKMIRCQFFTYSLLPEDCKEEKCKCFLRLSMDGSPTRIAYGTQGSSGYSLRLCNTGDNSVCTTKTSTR
UniProt P03951, 388-625 limits assumed: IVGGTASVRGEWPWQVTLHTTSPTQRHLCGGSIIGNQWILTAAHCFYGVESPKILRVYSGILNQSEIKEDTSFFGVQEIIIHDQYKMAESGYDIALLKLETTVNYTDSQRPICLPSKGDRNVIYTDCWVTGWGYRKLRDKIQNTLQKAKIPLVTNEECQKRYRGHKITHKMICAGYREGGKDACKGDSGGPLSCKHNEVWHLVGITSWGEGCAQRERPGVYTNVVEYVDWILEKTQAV
UniProt P03951, 19-387 partner limits assumed: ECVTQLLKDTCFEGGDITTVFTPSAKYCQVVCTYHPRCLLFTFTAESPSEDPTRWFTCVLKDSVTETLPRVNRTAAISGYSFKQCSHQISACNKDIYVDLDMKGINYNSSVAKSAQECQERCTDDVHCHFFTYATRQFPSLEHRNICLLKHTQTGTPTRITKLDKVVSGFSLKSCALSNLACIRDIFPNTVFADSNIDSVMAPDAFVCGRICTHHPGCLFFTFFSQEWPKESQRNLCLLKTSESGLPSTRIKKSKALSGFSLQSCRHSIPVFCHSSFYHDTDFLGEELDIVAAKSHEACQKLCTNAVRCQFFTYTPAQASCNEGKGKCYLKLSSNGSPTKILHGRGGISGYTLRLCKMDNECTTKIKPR

Legend:
human plasma kallikrein = human plasma kallikrein (Homo sapiens, UniProt P03952); experiment: Kallikrein inhibition assay utilizing a quenched AMC peptide substrate (FLINT)
Protocol: Biological Example 2: Kallikrein Inhibition Assay Utilizing a Quenched AMC Peptide Substrate
A fluorescence intensity (FLINT) based assay was used to monitor inhibition of human plasma kallikrein. The peptide substrate, Z-Gly-Pro-Arg-AMC (Purchased from Bachem; Catalog #I-1150) was chosen based on its relatively low KM for kallikrein which enables running the assay at lower substrate concentrations to control background fluorescence. The kinetic parameters for this substrate were determined by fitting titration data to the Michaelis-Menten equation yielding a KM=40 μM, kcat=0.76 s^−1, and kcat/KM=18932 M^−1s^−1.
The Kallikrein FLINT assay was used with the following Z-Gly-Pro-Arg-AMC assay buffer: 50 mM Tris, pH 7.5, 100 mM NaCl, 5 mM CaCl2, 0.1 mg/mL BSA, 0.03% CHAPS. Assay buffer was prepared by mixing all ingredients fresh. 2× Z-Gly-Pro-Arg-AMC peptide substrate was prepared by diluting 10 mM stock into 1× assay buffer for a 100 μM working concentration (50 μM final concentration). The 2× kallikrein stock solution was prepared by diluting 14.76 μM stock in 1× assay buffer for a 4 nM working stock solution (2 nM final concentration).
Test compound(s) were run in an 11-point, 3-fold serial dilution with a final top compound concentration of 1 μM. Final DMSO in assay was 2%. Plasma kallikrein was pre-incubated for 30-minute with compound and then 50 μM substrate was added to initiate the reaction. The assay was run with kinetic (KIN) reads at 5 min intervals over 30 minutes. The time course was linear using 2 nM kallikrein greater than 30 minutes. More specifically, the assay was run as follows: • 100 nL of 0.1 mM test compound was dispensed into black 384-well non-binding Greiner BioOne 784900 plate for 1 μM final concentration; • 5 μL of 1× assay buffer was dispensed to columns 24 (low control) and 5 μL 2× human kallikrein enzyme solution was dispensed to columns 1-23 (column 23 high control); • the plate was centrifuged with a “cover” plate at 500 rpm for 1 min • the plate was pre-incubated for 30 minutes at room temperature with plate covered; • 5 μL of 2× Z-Gly-Pro-Arg-AMC peptide substrate was dispensed into the entire plate, columns 1-24; • the plate was centrifuged with a “cover” plate at 500 rpm for 1 min; • the plate was read monitoring fluorescence intensity on the BMG PHERAStar at room temperature, using fluorescence module 340 nm/440 nm.
(§1) Percent inhibition (IC50) curves were generated per compound tested, and data was analyzed using a 4-parameter logistic fit using GeneData Screener. The relative fluorescence unit (RFU) values were normalized to percent inhibition using the following equation: % inhibition=((HC−LC)−(compound−LC)/(HC−LC))*100
where LC—low control=mean signal of […] 100% inhibition of human kallikrein enzyme; HC—high control=mean signal of […]+Z-Gly-Pro-Arg-AMC peptide substrate with DMSO only.
(§2) An 11-point dose response curve for the test compound(s) was generated using GENDATA to determine IC50 value based on the following equation: Y=Bottom+(Top−Bottom)/(1+10^((log IC50−X)*HillSlope))
(§3) where Y is the % inhibition in the presence of X inhibitor concentration, Top=high control=mean signal of human kallikrein enzyme+Z-Gly-Pro-Arg-AMC peptide substrate with DMSO only; Bottom=low control—mean signal of no human kallikrein enzyme or 100% inhibition of human kallikrein enzyme; HillSlope—Hill coefficient; and IC50=concentration of compound with 50% inhibition in relation to top/high control.

Factor XIa = Factor XIa (Homo sapiens, UniProt P03951); experiment: Factor XIa inhibition assay utilizing a fluorophore-quencher pair peptide substrate (FLINT); settings: read-out: FXIa Inhibition IC50; 11-point, 3-fold serial dilution, top 100 nM; 30 min preincubation; 15 μM 5Fam-KLTRAETV-K5Tamra substrate; kinetic reads over 30 min
Description: Biological Example 1: Factor XIa Inhibition Assay Utilizing a Fluorophore-Quencher Pair Peptide Substrate
A fluorescence intensity (FLINT) based assay was used to monitor inhibition of Factor XIa. The peptide substrate, 5Fam-KLTRAETV-K5Tamra (purchased from New England Peptide) was chosen based on the FXI sequence. Conversion of zymogen FXI to its activated form, FXIa, occurs by proteolytic cleavage by […] at two sites, Arg146 and Arg180. The custom peptide used in this assay was based on the Arg146 cleavage site of FXI. The peptide substrate was designed with a fluorophore-quencher pair, where the fluorescence is quenched until FXIa cleaves the 8-mer peptide after the Arg residue. The substrate KM was fit to a substrate inhibition model whereby kcat=0.86 s^−1, KM=12.4 μM, Ki=61.6 μM with an enzymatic efficiency, and kcat/KM=69523 M^−1s^−1.
The Factor XIa FLINT assay was used with the following 5Fam-KLTRAETV-K5Tamra assay buffer: 50 mM Tris, pH 7.5, 100 mM NaCl, 5 mM CaCl2, 0.1 mg/mL BSA, 0.03% CHAPS. Assay buffer was prepared by mixing all ingredients fresh. 5Fam-KLTRAETV-K5Tamra peptide substrate was first prepared at 10 mM in 100% DMSO, then diluted to 3 mM in 100% DMSO. Assay buffer was then added directly to the 3 mM stock of substrate to prepare the 30 μM 2× working concentration (15 μM final concentration). The 2× Factor XIa stock solution was prepared by diluting 6.562 μM stock in 1× assay buffer for a […].
Test compound(s) were run in an 11-point, 3-fold serial dilution with a final top compound concentration of 100 nM. Final DMSO in assay was 2%. FXIa was preincubated with compound for 30-minutes and then substrate was added to initiate the reaction. The assay was run with kinetic (KIN) reads at 5 min intervals over 30 minutes. […] More specifically, the assay was run as follows: • 100 nL of 0.01 mM test compound was dispensed into black 384-well non-binding Greiner BioOne 784900 plate for 0.1 μM final concentration, • 5 μL of 1× assay buffer was dispensed to column 24 (low control) and 5 μL 2× Factor XIa solution was dispensed to columns 1-23 (column 23 high control); • the plate was centrifuged with a “cover” plate at 500 rpm for 1 min • the plate was pre-incubated for 30 minutes at room temperature with plate covered; • 5 μL of 2×5Fam-KLTRAETV-K5Tamra peptide substrate was dispensed into the entire plate, columns 1-24; • the plate was centrifuged with a “cover” plate at 500 rpm for 1 min; • the plate was read monitoring fluorescence intensity on the BMG PHERAStar at room temperature, using fluorescence module 485 nm/520 nm.
as §1
where LC—low control=mean signal of no Factor XIa or 100% inhibition of Factor XIa; HC—high control=mean signal of Factor XIa+5Fam-KLTRAETV-K5Tamra peptide substrate with DMSO only.
as §2
as §3, with “Factor XIa+5Fam-KLTRAETV-K5Tamra” for “human kallikrein enzyme+Z-Gly-Pro-Arg-AMC”, “Factor XIa” for “human kallikrein enzyme”, “Factor XIa;” for “human kallikrein enzyme;”

[1] = read-out: Plasma Kallikrein IC50, 11-point, 3-fold serial dilution, top 1 μM, 30 min preincubation, 2 nM kallikrein, 50 μM Z-Gly-Pro-Arg-AMC, kinetic reads over 30 min

## NC(=NO)c1ccc(NC(=O)[C@@H]2CC[C@@H]3CC(c4c(-n5cnnn5)ccc(Cl)c4F)=CC(=O)N32)cc1
Human plasma kallikrein; [1]
  IC50: 0.606 µM
Factor XIa
  IC50: 26.1 nM

## NC(=O)c1ccc(NC(=O)[C@@H]2CC[C@H]3CC(c4c(-n5cc(C(F)(F)F)nn5)ccc(Cl)c4F)=CC(=O)N32)cc1F
Human plasma kallikrein; [1]
  IC50: 0.626 µM
Factor XIa
  IC50: > 50 nM

## NC(=O)c1ccc(NC(=O)[C@@H]2CC[C@H]3CC(c4cc(Cl)ccc4-n4cc(C(F)(F)F)nn4)=CC(=O)N32)cc1F
Human plasma kallikrein; [1]
  IC50: 0.946 µM
Factor XIa
  IC50: > 50 nM

## O=C(O)c1cccc(NC(=O)[C@@H]2CC[C@@H]3CC(c4c(-n5cc(C(F)(F)F)nn5)ccc(Cl)c4F)=CC(=O)N32)c1F
Human plasma kallikrein; read-out: Plasma Kallikrein IC50 (μM), same assay as E2, unit μM printed in the cell under a head that says nM
  IC50: > 1 µM
Factor XIa
  IC50: > 50 nM

## O=C(Nc1ccc(-c2noc(C(F)F)n2)cc1)[C@@H]1CC[C@@H]2CC(c3c(-n4cnnn4)ccc(Cl)c3F)=CC(=O)N21
Human plasma kallikrein; [1]
  IC50: 0.348 µM
Factor XIa
  IC50: > 50 nM

## O=C(Nc1ccc(-c2ncon2)cc1)[C@@H]1CC[C@@H]2CC(c3c(-n4cnnn4)ccc(Cl)c3F)=CC(=O)N21
Human plasma kallikrein; [1]
  IC50: 0.123 µM
Factor XIa
  IC50: 23.4 nM

## O=C(NC1CC1)c1ccc(NC(=O)[C@@H]2CC[C@@H]3CC(c4c(-n5cnnn5)ccc(Cl)c4F)=CC(=O)N32)cc1
Human plasma kallikrein; [1]
  IC50: 0.677 µM
Factor XIa
  IC50: > 50 nM

Like-named read-outs stand apart in the source and are kept apart here.
